Measured values published in patent US20090048295A1, “SUBSTITUTED 5,6,7,8-TETRAHYDROQUINOLINE DERIVATIVES, COMPOSITIONS, AND METHODS OF USE THEREOF” (priority 2007, published 2009).
Several values for one entry are separate records, joined by “and”; a condition that tells them apart may be missing. Identical values can stand only once.

What was measured:
C5a receptor [1] = target: T1, C5a receptor (Homo sapiens, UniProt P21730); experiment: Calcium Mobilization Assay (C5a-induced Ca2+ mobilization, FLIPR, differentiated U937 cells); assay type: cell-based; design: endogenous in cells; host or cells: U937 cells differentiated with dibutyryl cAMP; conditions: […] recombinant human C5a, 20 min pre-incubation, multiple values = duplicate experiments, read-out: C5a Induced Ca Mobil. Average IC50
T1 sequence (P21730 1-350): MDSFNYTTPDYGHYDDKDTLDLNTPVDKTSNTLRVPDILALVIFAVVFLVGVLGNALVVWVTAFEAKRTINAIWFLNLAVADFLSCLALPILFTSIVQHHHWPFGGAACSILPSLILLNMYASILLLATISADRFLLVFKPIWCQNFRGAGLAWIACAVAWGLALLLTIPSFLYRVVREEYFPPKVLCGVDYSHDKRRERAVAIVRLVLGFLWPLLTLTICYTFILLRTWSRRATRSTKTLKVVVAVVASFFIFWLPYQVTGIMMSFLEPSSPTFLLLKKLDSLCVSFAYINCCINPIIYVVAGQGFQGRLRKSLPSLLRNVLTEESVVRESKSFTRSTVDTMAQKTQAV
Experimental: U937 cells (human monocytic cell line) were cultured in RPMI-1640 medium supplemented with 10% fetal bovine serum, 10 mM HEPES, 0.11 g/L pyruvate, 0.29 g/L L-glutamine, 100 IU/mL penicillin G and […] streptomycin. Dibutyryl cAMP (1 mM) was added to induce differentiation 2 or 3 days prior to loading the cells with 4.4 μM Fluo-3AM (Molecular Probes) for 30 min at 37° C. in RPMI medium containing 20 mM HEPES, 0.1% bovine serum albumin (BSA) and 5 mM probenecid. After washing, cells were dissolved at 2×10^6 cells/ml in HBSS buffer (Invitrogen 14190-094) supplemented with 10 mM HEPES, 2.5 mM probenecid and 0.1% BSA (pH=7.4), and sedimented by 1 min centrifugation (1500 rpm) in black 96-well plates (Costar) (200,000 cells/well). A 100× concentration range of test compounds was prepared in DMSO and further diluted in HBSS buffer. U937 cells were pre-incubated with compound for 20 minutes at room temperature (1% DMSO), before recombinant human C5a (Sigma) was added to the cells (1.5 nM). Changes in intracellular free Ca^2+ concentration were measured using the Fluorescent Imaging Plate Reader (FLIPR, Molecular Devices). Fluorescence was recorded every second from 10 seconds before the addition of C5a until 2 min after the addition. The maximal fluorescence obtained during this time frame was used for further calculations.

C5a receptor [2] = target: T1, C5a receptor; experiment: [125I]-C5a Radioligand Binding Assay (competition binding, differentiated U937 cells);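 note: cells preincubated with compound 30 min at room temperature, then 60 min at 4 °C with radioligand, bound counts read by scintillation, nonspecific binding defined with 100 nM C5a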
C5a receptor [3] = target: T1, C5a receptor; experiment: biochemical

SMILES	IC50 (C5a receptor [1]) [nM]	inhibition at 1 µM (C5a receptor [2]; read-out: [125I]-C5a Binding % Inhibition 1 μM) [%]	inhibition at 10 µM (C5a receptor [2]; read-out: [125I]-C5a Binding % Inhibition 10 μM) [%]	Ki (C5a receptor [3])
CCc1cccc(CC)c1-c1cc(OC)c2c(n1)CCCC2N(CC)c1cccc2ccccc12 (single isomer, unassigned) [Compound 152]	> 10000	–	–	–
CCc1cccc(CC)c1-c1cc(OC)c2c(n1)CCCC2Nc1ccccc1C(F)(F)F (centres unmarked) [Compound 120]	–	75	82	–
CCc1cccc(CC)c1-c1cc(OC)c2c(n1)CCCC2N(CC)c1cccc2ccccc12 (racemic) [Compound 12, (±)-[2-(2,6-Diethyl-phenyl)-4-methoxy-5,6,7,8-tetrahydro-quinolin-5-yl]-ethyl-naphthlen-1-yl-amine]	94	–	–	10 nM and 7.8 nM
